PubChem BioAssay AID720580 (National Center for Advancing Translational Sciences (NCATS), 2013)
The list shows a part of the results, in another mix than the full data. Results filed as inconclusive are left out. The source made the active and inactive calls. The call rests on the fitted dose curve; tested in A549 cells.

Test: qHTS for Stage-Specific Inhibitors of Vaccinia Orthopoxvirus: Venus Reporter Primary qHTS; further: nearly all actives have a fitted effect of over 30% in size
Details: Vaccinia virus Venus reporter expression, fluorescence; at 36.5 µM (top of the series)
On the % scale 0 is the no-effect control and ±100 the full control effect.

SMILES	activity change, negative = inhibition
CN(CCCl)CCCl	inactive: -12.2%
CCC(=O)N(c1ccccc1)C1(COC)CCN(CCn2nnn(CC)c2=O)CC1	inactive: -11.3%
CCC(=O)N(c1ccccc1)C1(COC)CCN(CCc2cccs2)CC1	inactive: -4.27%
